# Test system: Bastardhunde
# Test: Coronary-dilating / haemodynamic effect in anaesthetised open-chest dogs (electromagnetic flowmeter, aortic catheter, tachograph)
# Conditions: Dosis i.v. 3 mg/kg in Propylenglykol, n = 5
# [1] = maximal effect in percent of baseline
smiles,measurement,setting,value
Cc1nc(C(N)=O)c(C(=O)N[N+](=O)[O-])n1[C@@H]1O[C@H](CO[N+](=O)[O-])[C@@H](O[N+](=O)[O-])[C@H]1O[N+](=O)[O-],"BP [min] (arterieller Blutdruck, Wirkungsdauer)",duration of effect,>60 min
same,"CABF [min] (Coronarfluss, Wirkungsdauer)",duration of effect,>60 min
same,"HR [min] (Herzfrequenz, Wirkungsdauer)",duration of effect,20 min
same,"PL [min] (Druckgradient, Wirkungsdauer)",duration of effect,60 min
same,BP Δ % (arterieller Blutdruck),[1],-55%
same,CABF Δ % (Coronarfluss),[1],-30%
same,HR Δ % (Herzfrequenz),[1],+8%
same,"PL Δ % (Druckgradient, Aortadruck minus peripherem Coronardruck)",[1],-38%

# — patent EP0004261A2, “Imidazole derivatives, method for their preparation and pharmaceutical compositions containing them” (F. HOFFMANN-LA ROCHE & CO. Aktiengesellschaft, priority 1978, dated 1979)
